Laboratory results from publication PMC8058707.

B1: Yes-associated protein (YAP): GlcN (5 mM) (protein)
parent chain: MDPGQQPPPQPAPQGQGQPPSQPPQGQGPPSGPGQPAPAATQAAPQAPPAGHQIVHVRGDSETDLEALFNAVMNPKTANVPQTVPMRLRKLPDSFFKPPEPKSHSRQASTDAGTAGALTPQHVRAHSSPASLQLGAVSPGTLTPTGVVSGPAATPTAQHLRQSSFEIPDDVPLPAGWEMAKTSSGQRYFLNHIDQTTTWQDPRKAMLSQMNVTAPTSPPVQQNMMNSASGPLPDGWEQAMTQDGEIYYINHKNKTTSWLDPRLDPRFAMNQRISQSAPVKQPPPLAPQSPQGGVMGGSNSNQQQQMRLQQLQMEKERLRLKQQELLRQAMRNINPSTANSPKCQELALRSQLPTLEQDGGTQNPVSSPGMSQELRTMTTNSSDPFLNSGTYHSRDESTDSGLSMSSYSVPRTPDDFLNSVDEMDTGDTINQSTLPSQQNRFPDYLEAIPGTNVDLGTLEGDGMNIEGEELMPSLQEALSSDILNDMESVLAATKLDKESFLTWL
B2: Yes-associated protein (YAP): GlcNAc (5 mM) (protein)
parent chain: B1 parent chain
B3: Yes-associated protein (YAP): GFPT1 overexpression (protein)
parent chain: B1 parent chain
B4: Yes-associated protein (YAP): GFPT1S205A expression (protein)
parent chain: B1 parent chain

Columns and labels:
[1] = immunoblot of total YAP after erastin 8 h; conditions: glycan gained; control: erastin alone, H1975 cells
[2] = anti-YAP IP, anti-Ub immunoblot; conditions: glycan gained; control: control H1975 cells

Protein	expression_or_secretion [1]	other: ubiquitination [2]
B1	increases	
B2	increases	
B3		decreases
B4	increases	
